Experimental data reported in patent US6284746A, “Inclusion complexes of taxol or taxotere or taxus extract formed with cyclodextrins, its preparation and use” (Chinoin, Ltd., priority 1993, dated 2001).

Assay: Solubilization of taxol with sulfopropyloxy-β-cyclodextrin (Example 3)
Type: physicochemical
Details: 25° C., in water, neutral pH
Excerpt: Taxol was solubilized in the presence of sulfopropyloxy-β-cyclodextrinin the same way as described in example 2.

CC(=O)O[C@H]1C(=O)[C@@]2(C)[C@H]([C@H](OC(=O)c3ccccc3)[C@]3(O)C[C@H](OC(=O)[C@H](O)[C@@H](NC(=O)c4ccccc4)c4ccccc4)C(C)=C1C3(C)C)[C@]1(OC(C)=O)CO[C@@H]1C[C@@H]2O (relative stereo) [taxol, [2aR-[2aα, 4β; 4αβ,6β,9α(αR*,βS*),11α-12α,12aα, 12bα]]-β-(Benzoylamino)-α-hydroxybenzene-propanoic acid 6,12-b-bis (acetyloxy)-12-(benzoyloxy)-2a,3,4,4a, 5,6,9,10,11,12,12a,12b-dodecahydro-4,11-dihyroxy-4a,8,13,13-tetramethyl-5-oxo-7,11-methano-1H-cyclodeca[3,4]-benz-[1,2-b]oxet-9-yl ester]
decomposition of taxol in solution: found to decompose to unknown products
